We go through 1 compound from ChEMBL document CHEMBL2040715, “Discovery of a Potent HIV Integrase Inhibitor that Leads to a Prodrug with Significant anti-HIV Activity” (ACS Med Chem Lett, 2011).

This assay has as its system Human immunodeficiency virus 1. Nature of the assay: Ratio of EC50 for HIV1 to IC50 for HIV1 integrase-mediated strand transfer.

Structures are written as SMILES. Where only a bound is given, the exact number is not on record here.

With `O=C(O)/C(O)=C/C(=O)c1cc(Cc2ccc(F)cc2F)cn(Cc2ccccc2F)c1=O`, the Ratio is > 2.
